Experimental data reported in article PMC7180491, “Synthesis and Biological Evaluation of Novel (thio)semicarbazone-Based Benzimidazoles as Antiviral Agents against Human Respiratory Viruses” (Molecules, 2020).

What does the source list for “dextran sulfate MW 10,000 [DS-10,000, reference compound]”?
CC50 Vero (Vero cells): >100 µg/mL; CC50 Hep-2 (Hep-2 cells): >100 µg/mL
